In patent publication US20240207463A1, “RADIOACTIVE COMPLEX OF ANTI-EGFR ANTIBODY, AND RADIOPHARMACEUTICAL” (NIHON MEDI-PHYSICS CO., LTD., priority 2021, published 2024):

System: A431 cells
Assay: Antitumor effect in subcutaneous tumor-bearing model of A431
Format: in vivo
Conditions: 15 kBq/mouse, 37 days observation

With “Comparative Example 1: Conjugate with cetuximab by using 225Ac-labeled DOTA-DBCO; contains a thiourea bond [reference compound]” the “general condition and sign of toxicity (loss of weight)” value was “no sign of toxicity such as significant loss of weight was observed”.
